From patent US8318899B2, “Lytic domain fusion constructs and methods of making and using same” (Board of Supervisors of Louisiana State University and …, priority 2008, dated 2012)

How the values were obtained:
human red blood cells = test: Acute hemolytic activity on human RBC; type: cell-based; conditions: 0.5% human RBC, 2 h
Description: Hemolytic activity was determined in 96 well plates using a serial dilution of peptides exposed to 0.5% human RBC. Controls were saline (no RBC death) or 0.1% Triton X 100 (100% RBC lysis). The peptide concentrations ranged from 0 to 100 μM. Incubations were conducted for 2 h.

NIH:OVCAR-3 xenograft = test: OVCAR-3 ovarian cancer xenograft; type: in vivo; conditions: 2 mg/kg; procedural, not related to treatment
Description: To determine the efficacy of Phor18-LHRH (338613) on ovarian cancer xenografts that resemble the human disease, single and multiple dose studies were conducted. The xenograft model of the OVCAR-3 human ovarian cancer cell line that present functional LHRH receptors was used in this study. OVCAR-3 represents a slow growing xenograft model and secretes the tumor marker (cancer antigen 125, or […]). It's secretion can be used as treatment response and is a measure of drug activity. […]
A group of 9 tumor bearing mice was sacrificed on day 33 and served as baseline group. […] Tumor volumes and bodyweights were recorded twice weekly during the study, as well as overall veterinarian examination of mice was conducted.
Primary tumors, liver, kidney, pancreas, heart, lung, and spleen were collected, fixed in formalin and prepared for histological evaluation. Tumor weights were measured at necropsy, part of the tumors were frozen at −80° C. for LH/CG and LHRH receptor assay determination.
As a biomarker for drug activity, CA125 was determined in serum, collected from each individual mouse at necropsy using a Enzyme Linked Immunoassay for quantitative determination of ovarian cancer antigen CA125 (Assay kit Genway, Biotech, Inc. San Diego, Calif., Catalog #40-052-115009, # BC-1013 according to the manufacturer).
LHRH receptor levels were assessed from formalin fixed tumors. […]

MDA-MB435S xenograft = test: MDA-MB435S xenograft, multiple dose regimen; type: in vivo, Nu/Nu mice; conditions: 0.002 and 0.2 mg/kg
Description: In order to determine the minimal effective dose necessary to reduce MDA-MB435S xenograft weights in a multiple dose regimen, Nu/Nu female mice, outbred strain, age 8 weeks (Charles River), were injected (s.c.) into the interscapular region with a MDA-MB435S (passage #253)/Matrigel suspension (2×10^6 cells/mouse) as previously described above. Phor18-LHRH (338613) (ID: 338613 lot# P080401) (0.002, and 0.2 mg/kg) were reconstituted in USP saline prior to dosing. The doses were given as a single bolus intravenous injection via lateral tail vein on days 15, 16, 17, 20, 21, 22, 23, 27, 28, 29, 30, 33, 34, 35, 36, 37, 38, 40, 41, 42 after tumor cell inoculation. Saline injections served as control groups.
Each treatment group consisted of 16 mice. During the entire study tumor volumes were recorded twice weekly. Final necropsy was conducted on day 45 after tumor cell injection. […] due to occlusion of the tail vein in most mice. At study endpoint body weight, tumor weights were determined and fixed in phosphate buffered 10% formalin.

KFAKFAKKFAKFAKKFAKQHWSYGLRPG [Phor18-LHRH]
HA50 (hemolytic activity) (human red blood cells): 297 µM | deaths on injection (NIH:OVCAR-3 xenograft): One mouse died during the first injection | effects on body weight or organ examination (MDA-MB435S xenograft): without any visible effects on body weight or organ examination
